Laboratory results reported in publication PMC10892093 (Pharmaceutics, 2024).

Molecular target: T1, UGT2B7 (Homo sapiens, UniProt P16662)
T1 construct: expressed in transfected cells; microsomal fraction
T1 sequence (P16662 24-529): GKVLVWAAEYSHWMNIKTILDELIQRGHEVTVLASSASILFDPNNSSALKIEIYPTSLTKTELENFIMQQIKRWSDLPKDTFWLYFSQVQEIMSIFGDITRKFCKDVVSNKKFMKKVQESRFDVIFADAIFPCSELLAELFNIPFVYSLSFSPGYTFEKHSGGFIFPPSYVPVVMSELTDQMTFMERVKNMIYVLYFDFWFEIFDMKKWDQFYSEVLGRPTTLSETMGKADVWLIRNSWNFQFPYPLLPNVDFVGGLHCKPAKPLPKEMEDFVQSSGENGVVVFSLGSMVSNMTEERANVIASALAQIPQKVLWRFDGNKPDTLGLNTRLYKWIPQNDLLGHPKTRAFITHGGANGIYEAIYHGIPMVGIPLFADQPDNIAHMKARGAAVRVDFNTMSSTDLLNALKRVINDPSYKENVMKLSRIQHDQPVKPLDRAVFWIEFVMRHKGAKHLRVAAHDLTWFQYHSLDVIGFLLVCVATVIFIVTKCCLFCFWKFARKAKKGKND
Experiment: Inhibition of R- and S-oxazepam glucuronidation in rUGT2B7 microsomes (UGT-overexpressing HEK293)
Format: biochemical
Experimental: Human embryonic kidney cells (HEK293) stably overexpressing the single UGTs 1A9, 2B7, and 2B15 have been previously established and described. Cells were grown in DMEM supplemented with 350 μg/mL of geneticin and 10% FBS and harvested in PBS. Microsomal fractions of UGT-overexpressing cell lines were prepared by differential centrifugation using previously described protocols. Briefly, cell homogenates were prepared by resuspending pelleted cells in PBS, followed by five rounds of freeze–thaw cycles prior to homogenization. Recombinant microsomes (rUGTs) were prepared by centrifuging the cell homogenate at a low speed (9000× g for 30 min) followed by ultracentrifugation (34,000× g for 60 min), with the total protein subsequently determined using a BCA assay. Recombinant microsomes (UGT1A9 and 2B7) and homogenates (UGT2B15) were used for inhibition studies.
A Waters Corp BEH C18 Acquity UPLC column (1.7 µM, 2.1 × 100 mm) was used at a constant temperature of 40 °C for chromatographic separation. An elution gradient was used for 6.5 min with mobile phases A (5 mM ammonium formate) and B (100% methanol) under the following conditions: 90% A for 0.5 min, followed by a linear gradient for 3 min to 60% A, 1 min at 5% A, and re-equilibration for 1 min at 90% A.
The reaction was initiated by the addition of 4 mM UDPGA as the cofactor and incubated for 2 h at 37 °C. The reaction was terminated by adding 30 µL of an ice-cold stop solution (acetonitrile/methanol; 1:1). The reaction mixtures were centrifuged at 17,000× g for 30 min at 4 °C, and the supernatant was transferred to UPLC sample glass vial for analysis using UPLC–MS/MS (described above). […] As a positive control for inhibition assays, ketoconazole (10 μM and 100 µM) was used as a potential inhibitor of the UGTs 1A9, 2B7, and 2B15. Reactions containing only the cannabinoid vehicle (3% methanol) and without any inhibitor (cannabinoids) were used as a baseline reaction for 100% enzyme activity, while a reaction without UDPGA was used as a negative control. All experiments were performed in three independent experiments.
Determination of IC50 and Ki Values. […] The nonspecific binding constants (fu,inc) for cannabinoids in HEK293 microsomes, HLM, and HKM were previously determined and used to calculate the inhibition by unbound (‘free’) cannabinoid in each reaction. A nonlinear regression analysis and the following equation were used to calculate the IC50 values:(1) y = Bottom +Top − Bottom / 1 + 10^x − LogIC50A where ‘Bottom’ is the maximum observed inhibition (lowest percent activity) and ‘Top’ is the minimum observed inhibition (highest percent activity) for a given cannabinoid.

C=C(C)[C@@H]1CCC(C)=C[C@H]1c1c(O)cc(CCCCC)cc1O [CBD, cannabidiol]
IC50 (IC50 corrected with fu,inc, read-out: IC50,u, R-Oxazepam Glucuronide): 100 ± 45 nM | IC50 (IC50 corrected with fu,inc, read-out: IC50,u, S-Oxazepam Glucuronide): 110 ± 110 nM | IC50 (read-out: IC50, R-Oxazepam Glucuronide): 2600 ± 1200 nM | IC50 (read-out: IC50, S-Oxazepam Glucuronide): 2900 ± 2900 nM

Like-named read-outs stand apart in the source and are kept apart here.
